Measured values from patent publication US10967068B2, “Stability-modulating linkers for use with antibody drug conjugates” (priority 2014, dated 2021).
“And” between values parts separate entries of the source, which are not always exact repeats. Identical values can stand only once. Like-named read-outs stand apart in the source and are kept apart here.

Experiments:
[1] = In Vitro Stability Assay—Mouse Plasma; assay type: in vitro ADME; details: for Conjugate Stability In Vitro in Mouse Plasma (% DAR remaining), LCQ04: tag LCQ04; for Conjugate Stability In Vitro in Mouse Plasma (% DAR remaining), H7C: tag H7C; for Conjugate Stability In Vitro in Mouse Plasma (% DAR remaining), H8A: tag H8A; for Conjugate Stability In Vitro in Mouse Plasma (% DAR remaining), H10: tag H10; for Conjugate Stability In Vitro in Mouse Plasma (% DAR remaining), H16: tag H16
[2] = 9 mg/kg; for Conjugate Stability In Vivo in Mouse (% DAR remaining), LCQ04: tag LCQ04 on Trop2 antibody; for Conjugate Stability In Vivo in Mouse (% DAR remaining), TG6: tag TG6 on Trop2 antibody
[3] = 4.5 d
[4] = 4.5 d; remark: listed apart in the source
[5] = attachment position TG6, % DAR remaining after incubation in plasma for 3 or 4.5 days
[6] = attachment position TG6, plasma species not printed in table (values match mouse plasma, Table 4)

AcLys-vcMMAD [Example 9]
Conjugate stability (%) [1, 5]: 92%
DAR after plasma incubation for 3 to 4.5 days [1, 6]: 1.80
Conjugate Stability In Vitro in Mouse Plasma (% DAR remaining), LCQ04 ([1]; 3 d, value marked *): 90%
Conjugate Stability In Vitro in Mouse Plasma (% DAR remaining), LCQ04 ([1]; 3 d, value marked **): 97%
Conjugate Stability In Vitro in Mouse Plasma (% DAR remaining), TG6 ([1]; tag TG6 on Trop2 antibody, 3 d): 88%
Conjugate Stability In Vivo in Mouse (% DAR remaining), LCQ04 ([2]; 4 d, value marked **): 89** %
Conjugate Stability In Vivo in Mouse (% DAR remaining), TG6 ([2]; 4 d): 83%

C6vc0101 [Example 10]
Conjugate stability In Vitro in Cyno Plasma (% DAR remaining), H7C ([3]; tag H7C): 98%
Conjugate stability In Vitro in Cyno Plasma (% DAR remaining), H8A ([3]; tag H8A): 101%
Conjugate stability In Vitro in Cyno Plasma (% DAR remaining), H10 ([3]; tag H10): 97%
Conjugate stability In Vitro in Cyno Plasma (% DAR remaining), H16 ([3]; tag H16): 100%
Conjugate stability In Vitro in Cyno Plasma (% DAR remaining), L11B/C ([3]; tag L11B/C): 99%
Conjugate stability In Vitro in Cyno Plasma (% DAR remaining), LCQ04 ([3]; tag LCQ04): 100%
Conjugate stability In Vitro in Cyno Plasma (% DAR remaining), TG6 ([3]; tag TG6): 99%
Conjugate Stability In Vitro in Mouse Plasma (% DAR remaining), N297A [1]: 89%
Conjugate Stability In Vitro in Mouse Plasma (% DAR remaining), N297Q [1]: 100%
Conjugate stability (%) [1]: 87% and 100%
DAR after plasma incubation for 3 to 4.5 days ([1]; attachment position H7C): 0.34
Conjugate stability (%) ([1]; attachment position H7C, % DAR remaining after plasma 3 or 4.5 days): 22%
DAR after plasma incubation for 3 to 4.5 days ([1]; attachment position H8A): 0.11
Conjugate stability (%) ([1]; attachment position H8A, % DAR remaining after plasma 3 or 4.5 days): 6%
DAR after plasma incubation for 3 to 4.5 days ([1]; attachment position H10): 0.71
Conjugate stability (%) ([1]; attachment position H10, % DAR remaining after plasma 3 or 4.5 days): 42%
DAR after plasma incubation for 3 to 4.5 days ([1]; attachment position H16): 2.00
Conjugate stability (%) ([1]; attachment position H16, % DAR remaining after plasma 3 or 4.5 days): 100%
DAR after plasma incubation for 3 to 4.5 days ([1]; attachment position L11B): 0.09
Conjugate stability (%) ([1]; attachment position L11B, % DAR remaining after plasma 3 or 4.5 days): 5%
DAR after plasma incubation for 3 to 4.5 days ([1]; attachment position LCQ04): 1.63
Conjugate stability (%) ([1]; attachment position LCQ04, % DAR remaining after plasma 3 or 4.5 days): 86%
Conjugate stability (%) [1, 5]: 34%
DAR after plasma incubation for 3 to 4.5 days [1, 6]: 0.67
Conjugate Stability In Vitro in Mouse Plasma (% DAR remaining), H7C ([1]; 4.5 d): 22%
Conjugate Stability In Vitro in Mouse Plasma (% DAR remaining), H8A ([1]; 4.5 d): 6%
Conjugate Stability In Vitro in Mouse Plasma (% DAR remaining), H10 ([1]; 4.5 d): 42, 42%
Conjugate Stability In Vitro in Mouse Plasma (% DAR remaining), H16 ([1]; 4.5 d): 100%
Conjugate Stability In Vitro in Mouse Plasma (% DAR remaining), L11B/C ([1]; tag L11B/C, 4.5 d): 4% and 5%
Conjugate Stability In Vitro in Mouse Plasma (% DAR remaining), LCQ04 ([1]; 4.5 d): 88% and 86%
Conjugate Stability In Vitro in Mouse Plasma (% DAR remaining), TG6 ([1]; tag TG6, 4.5 d): 44% and 34%
Conjugate Stability In Vitro in Mouse Plasma (% DAR remaining), TG6 ([1]; tag TG6 on Trop2 antibody, 3 d): 64% and 54%
Conjugate Stability In Vivo in Mouse (% DAR remaining), LCQ04 ([2]; 3 d): 72%
Conjugate Stability In Vivo in Mouse (% DAR remaining), LCQ04 ([2]; 10 d): 24%
Conjugate Stability In Vitro in Rat Plasma (% DAR remaining), H7C ([4]; tag H7C): 97%
Conjugate Stability In Vitro in Rat Plasma (% DAR remaining), H8A ([4]; tag H8A): 99%
Conjugate Stability In Vitro in Rat Plasma (% DAR remaining), H10 ([4]; tag H10): 97%
Conjugate Stability In Vitro in Rat Plasma (% DAR remaining), H16 ([4]; tag H16): 100%
Conjugate Stability In Vitro in Rat Plasma (% DAR remaining), L11B/C ([4]; tag L11B/C): 94%
Conjugate Stability In Vitro in Rat Plasma (% DAR remaining), LCQ04 ([4]; tag LCQ04): 99%
Conjugate Stability In Vitro in Rat Plasma (% DAR remaining), TG6 ([4]; tag TG6): 97%

C6vcMMAD [Example 8]
Conjugate Stability In Vitro in Mouse Plasma (% DAR remaining), H12C [1]: 96%
Conjugate Stability In Vitro in Mouse Plasma (% DAR remaining), H13A [1]: 0%
Conjugate Stability In Vitro in Mouse Plasma (% DAR remaining), L11B/C [1]: 5%
Conjugate Stability In Vitro in Mouse Plasma (% DAR remaining), N297A [1]: 77%
Conjugate Stability In Vitro in Mouse Plasma (% DAR remaining), N297Q [1]: 96%
Conjugate Stability In Vitro in Mouse Plasma (% DAR remaining), H7C ([1]; 3 d): 26%
Conjugate Stability In Vitro in Mouse Plasma (% DAR remaining), H8A ([1]; 3 d): 18%
Conjugate Stability In Vitro in Mouse Plasma (% DAR remaining), H10 ([1]; 3 d): 37%
Conjugate Stability In Vitro in Mouse Plasma (% DAR remaining), H16 ([1]; 3 d): 99%
Conjugate Stability In Vitro in Mouse Plasma (% DAR remaining), L11B/C ([1]; tag L11B (first value of 9/5), 3 d): 9%
Conjugate Stability In Vitro in Mouse Plasma (% DAR remaining), LCQ04 ([1]; 3 d, value marked *): 66%
Conjugate Stability In Vitro in Mouse Plasma (% DAR remaining), LCQ04 ([1]; 3 d, value marked **): 75%
Conjugate Stability In Vitro in Mouse Plasma (% DAR remaining), TG6 ([1]; tag TG6 on Trop2 antibody, 3 d): 51%
Conjugate Stability In Vivo in Mouse (% DAR remaining), H7C ([2]; tag H7C on Trop2 antibody, 3 d): 1%
Conjugate Stability In Vivo in Mouse (% DAR remaining), TG6 ([2]; 3 d): 0%
